## Yeast mating assay 1: variants of the scFv Ab-14

Reference: Engelhart et al. 2022, doi:10.1038/s41597-022-01779-4. File: FLAb, binding data.

Target peptide (SARS-CoV-2 spike, HR2 region): PDVDLGDISGINAS

The variants keep the light chain, the linker and the frameworks of Ab-14 (scFv order VH, a (GGGGS)3 linker, VL).
VH: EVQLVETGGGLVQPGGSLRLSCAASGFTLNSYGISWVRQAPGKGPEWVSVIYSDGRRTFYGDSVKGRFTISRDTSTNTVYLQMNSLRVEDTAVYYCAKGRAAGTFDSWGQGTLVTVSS
VL: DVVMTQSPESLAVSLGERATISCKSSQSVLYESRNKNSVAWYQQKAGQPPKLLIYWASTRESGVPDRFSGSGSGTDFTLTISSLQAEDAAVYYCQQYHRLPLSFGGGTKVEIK

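Phage display of a naive human antibody library on the peptide gave the parent. In library AAYL49, one, two or three CDR residues were substituted; doubles and triples were drawn at random. AlphaSeq pools MATa yeast showing the antibodies with MATalpha yeast showing the peptide. After mating in shaken culture at 30 °C for 16 h, diploids were selected and their barcode pairs sequenced. Read counts were normalised to the haploid input and turned into Kd by a linear fit to BCL2-family pairs of known affinity, for each replicate. The assay was run in three technical replicates.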

The parent's heavy chain CDRs are GFTLNSYGIS, VIYSDGRRTFYGDSVK, GRAAGTFDS; each variant's own CDRs replace them letter for letter. Affinities are written as log10 Kd with Kd in nM; a lower number is a better binder. Where no diploid with the target was found in that replicate, the entry reads "ND": below detection, most likely a poor binder, though not proof of it. Background: pairings of library AAYL49 with three empty control strains gave a value in 15% of cases (median 4.06, 5th percentile 2.83). Values in that range, when seen in few replicates, are hard to tell from nonspecific mating. For each scFv, signals with the empty controls are counted beside the result.

With GFTLNSYGIS | VKYSEGRRTFYGCSVK | GRAAGTFDS the result was ND, ND, ND (controls 0 of 9).
With GRQLNSYGIS | VIYSDGRRTFYGDSVK | GRAATTFDS the result was ND, ND, ND (controls 0 of 9).
With GFTLNNYGIS | CIYSDGRRTFYGDSMK | GRAAGTFDS the result was 5.05, ND, 5.38 (controls 1 of 9).
With GFTLNSYGIS | VIYSDGRRTLYGDSVE | GRAAGTFDS the result was ND, 2.23, ND (controls 0 of 9).
With QFTLNSYGIS | VIYSDGRRTFYGDSVW | GPAAGTFDS the result was 3.58, 4.88, ND (controls 0 of 9).
With YFTLNSYGIS | VIYSDGRRTFSGDSWK | GRAAGTFDS the result was ND, 4.41, 5.60 (controls 3 of 9).
With GFTLNSYGIS | VIYSDGRRTFYGDSVK | GRAAGTMDM the result was 4.09, 4.46, 2.84 (controls 3 of 9).
With GFTKNSYGIS | VIYSDGRRTFYGDSNK | GRAAGTFDS the result was 3.56, ND, ND (controls 0 of 9).
With GFTLNSYGIS | FIYSDGRRTFYGDSVK | GRYAGTEDS the result was ND, ND, ND (controls 0 of 9).
With GATLNKYGIS | VIYSDGRRRFYGDSVK | GRAAGTFDS the result was 2.74, 3.04, 3.65 (controls 4 of 9).
With GFTGNSYGIS | VIYSDLRRTFYGDSVK | IRAAGTFDS the result was ND, ND, ND (controls 3 of 9).
With GFTLNSYGIP | VIYSDGRRTVYGDSVK | GRAAGAFDS the result was ND, ND, ND (controls 1 of 9).
With GFTLNSYGIC | HIYSDGRRTFVGDSVK | GRAAGTFDS the result was 3.67, ND, ND (controls 0 of 9).
With GFTLNSYGIS | QIYSDGRRTFYGDSVK | GWAAGWFDS the result was ND, ND, 2.35 (controls 0 of 9).
With GFTLNEYGIS | VIYSEGRRTFYGDSVK | GRAAGTQDS the result was ND, 3.55, ND (controls 1 of 9).
With GFTLNSYGIS | VIYSWGRRTFYGDSVK | YRAAGTLDS the result was ND, ND, ND (controls 0 of 9).
With GFTLNSYGIS | VDYHDGRRTFYGDSVK | GRALGTFDS the result was ND, ND, ND (controls 1 of 9).
With GFTLNSYGIS | VIYSDGRRTFYGDNAK | GRAAGTFDS the result was 1.57, 2.12, 1.53 (controls 0 of 9).
With GFTLNSYGIE | VIYSRGRRTFYGDSVK | GRIAGTFDS the result was ND, ND, ND (controls 0 of 9).
With GFTLISYGIS | VIYEDGRRTFYGDSVK | GCAAGTFDS the result was ND, ND, ND (controls 1 of 9).
With GFTLNSYGIS | VIYSDGRNTFYGDSVK | GQAAGTFDS the result was 2.89, 2.90, ND (controls 0 of 9).
With GFTLNSYGID | VIYSDGRRTFKGDSVK | LRAAGTFDS the result was ND, ND, 3.03 (controls 0 of 9).
With GFTLQSYGIS | VIYSDGRRTFYGDSFK | GRAAGTFDS the result was 0.93, 1.02, 1.31 (controls 6 of 9).
With GFTLNFEGIS | VIYSDGRRTFNGDSVK | GRAAGTFDS the result was ND, ND, ND (controls 1 of 9).
With GFRLNSYGNS | VLYSDGRRTFYGDSVK | GRAAGTFDS the result was ND, ND, ND (controls 1 of 9).
With GFTLLSYGIS | VFYSDGRRTFYGDSVK | GRAAGTFDM the result was ND, ND, ND (controls 0 of 9).
With GFTDNSYGIS | VIYSDGPRTFYGDSVK | GRAAGTFDL the result was ND, ND, ND (controls 0 of 9).
With GFTLISYGIS | VFYSDGRRWFYGDSVK | GRAAGTFDS the result was ND, 3.08, ND (controls 1 of 9).
With GFTLNSYGIS | VSYSDGRRTFYGDSMK | GHAAGTFDS the result was ND, ND, ND (controls 0 of 9).
With GFTLNSYGIS | VIYCDGFRLFYGDSVK | GRAAGTFDS the result was ND, 3.56, ND (controls 2 of 9).
With GKTLNSYGIS | VIYSRGRWTFYGDSVK | GRAAGTFDS the result was ND, 3.16, ND (controls 1 of 9).
With GFTFQSYGIS | VIYSDGRRTFYGDSVK | GRAAGTFDG the result was 3.54, ND, ND (controls 0 of 9).
With GFTLNSYGIS | VIYYEGRRTFYGDSPK | GRAAGTFDS the result was ND, ND, ND (controls 2 of 9).
With GFTLNPYGIS | QIYSDGRRTFYRDSVK | GRAAGTFDS the result was ND, ND, 4.54 (controls 3 of 9).
With GFTLNRYGIS | VIYSDIRRTFYGDSVK | GRFAGTFDS the result was ND, 3.81, ND (controls 3 of 9).
With GFDLNSYGIS | VIYSDGRRTFYGESPK | GRAAGTFDS the result was 3.03, 3.39, 2.94 (controls 3 of 9).
With GWTLRSYGIS | VIYSDGRRTFYGDSVK | GRAAGTFCS the result was ND, 3.65, ND (controls 1 of 9).
With GFTLLSYGIS | VIYSDGRRTFYGQSVD | GRAAGTFDS the result was 3.31, 3.63, ND (controls 6 of 9).
With GFTLNCYGII | VIYSDGRRTIYGDSVK | GRAAGTFDS the result was ND, ND, ND (controls 1 of 9).
With GFTLNSYGIS | VIYSDGRRVFYGDSGK | GRANGTFDS the result was 3.03, 2.89, 3.61 (controls 0 of 9).
With NTTLNSYGIS | VIYRDGRRTFYGDSVK | GRAAGTFDS the result was 4.14, 3.16, 3.10 (controls 0 of 9).
With GFTLCSYGIS | VIYSDGRRMFYGDSVK | GRAAGTFDS the result was 1.13, 1.14, 1.42 (controls 2 of 9).

The 7 strongest on average among those seen in every replicate, once more:

{"CDR-H1": "GFTLQSYGIS", "CDR-H2": "VIYSDGRRTFYGDSFK", "CDR-H3": "GRAAGTFDS", "replicates, log10 nM": "0.93, 1.02, 1.31", "control signals": "6/9"}
{"CDR-H1": "GFTLCSYGIS", "CDR-H2": "VIYSDGRRMFYGDSVK", "CDR-H3": "GRAAGTFDS", "replicates, log10 nM": "1.13, 1.14, 1.42", "control signals": "2/9"}
{"CDR-H1": "GFTLNSYGIS", "CDR-H2": "VIYSDGRRTFYGDNAK", "CDR-H3": "GRAAGTFDS", "replicates, log10 nM": "1.57, 2.12, 1.53", "control signals": "0/9"}
{"CDR-H1": "GFDLNSYGIS", "CDR-H2": "VIYSDGRRTFYGESPK", "CDR-H3": "GRAAGTFDS", "replicates, log10 nM": "3.03, 3.39, 2.94", "control signals": "3/9"}
{"CDR-H1": "GATLNKYGIS", "CDR-H2": "VIYSDGRRRFYGDSVK", "CDR-H3": "GRAAGTFDS", "replicates, log10 nM": "2.74, 3.04, 3.65", "control signals": "4/9"}
{"CDR-H1": "GFTLNSYGIS", "CDR-H2": "VIYSDGRRVFYGDSGK", "CDR-H3": "GRANGTFDS", "replicates, log10 nM": "3.03, 2.89, 3.61", "control signals": "0/9"}
{"CDR-H1": "NTTLNSYGIS", "CDR-H2": "VIYRDGRRTFYGDSVK", "CDR-H3": "GRAAGTFDS", "replicates, log10 nM": "4.14, 3.16, 3.10", "control signals": "0/9"}